CycPeptMPDB entries from one study

Source: CycPeptMPDB (Li et al. 2023), which took these values from Townsend et al. 2020, doi:10.26434/chemrxiv.13335941.v1.

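The data file gives no further conditions (lipid, pH, time, direction or concentration), and values from different papers need not be comparable. The list need not hold all peptides of the study. Peptides that the database sets to -10, its floor, are left out.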

PAMPA is the parallel artificial membrane permeability assay, which has no cells and reads passive diffusion. Permeability is given as log10 of P in cm/s; higher (less negative) is more permeable.

| compound | PAMPA (log10 cm/s) |
|---|---|
| CC(C)C[C@@H]1C(=O)N2CCC[C@H]2C(=O)N(C)[C@H](CC(C)C)C(=O)N[C@@H](Cc2ccccc2)C(=O)N2CCC[C@@H]2C(=O)N(C)[C@@H](C)C(=O)N[C@H](CC(C)C)C(=O)N1C | -5.06 |
| CC(C)C[C@@H]1NC(=O)[C@H](C)N(C)C(=O)[C@@H]2CCCN2C(=O)[C@H](Cc2ccccc2)NC(=O)[C@H](CC(C)C)NC(=O)[C@@H]2CCCN2C(=O)C[C@H](Cc2ccccc2)NC1=O | -6.22 |
| CC(C)C[C@@H]1NC(=O)[C@H]2CCCN2C(=O)[C@H](CC(C)C)NC(=O)[C@H](CC(C)C)N(C)C(=O)[C@H](C)NC(=O)[C@H](Cc2ccccc2)NC1=O | -6.46 |
| CC(C)C[C@@H]1C(=O)N(Cc2ccccc2)CC(=O)N2CCC[C@H]2C(=O)N(C)[C@@H](CC(C)C)C(=O)N[C@@H](Cc2ccccc2)C(=O)N[C@H](C)C(=O)N1C | -5.60 |
| CC(C)C[C@@H]1C(=O)N(C)[C@@H](CC(C)C)C(=O)N2CCC[C@H]2C(=O)N[C@H](CC(C)C)C(=O)N[C@@H](Cc2ccccc2)C(=O)N2CCC[C@@H]2C(=O)N(C)[C@H](C)C(=O)N1C | -6.49 |
| CC(C)C[C@@H]1NC(=O)[C@@H]2CCCN2C(=O)CN(Cc2ccccc2)C(=O)[C@H](CC(C)C)NC(=O)C[C@H](Cc2ccccc2)NC(=O)[C@H](Cc2ccccc2)NC1=O | -5.78 |
| CC(C)C[C@@H]1NC(=O)[C@@H](CC(C)C)N(C)C(=O)[C@@H](C)NC(=O)[C@@H]2CCCN2C(=O)[C@H](Cc2ccccc2)NC(=O)[C@H](CC(C)C)N(C)C(=O)[C@@H]2CCCN2C1=O | -5.63 |
| CC(C)C[C@@H]1C(=O)N(Cc2ccccc2)CC(=O)N2CCC[C@H]2C(=O)N[C@H](CC(C)C)C(=O)N[C@@H](Cc2ccccc2)C(=O)N2CCC[C@@H]2C(=O)N(C)[C@H](C)C(=O)N1C | -6.22 |
| CC(C)C[C@H]1NC(=O)[C@H](CC(C)C)N(C)C(=O)[C@@H](C)NC(=O)[C@H]2CCCN2C(=O)[C@H](Cc2ccccc2)NC(=O)[C@H](CC(C)C)N(C)C(=O)[C@H]2CCCN2C1=O | -5.79 |
| CC(C)C[C@H]1NC(=O)CN(Cc2ccccc2)C(=O)[C@@H](C)N(C)C(=O)[C@@H]2CCCN2C(=O)[C@H](Cc2ccccc2)NC(=O)[C@H](CC(C)C)N(C)C(=O)[C@@H]2CCCN2C1=O | -5.20 |
| CC(C)C[C@@H]1C(=O)N(C)[C@H](CC(C)C)C(=O)N2CCC[C@H]2C(=O)N(C)[C@H](CC(C)C)C(=O)N[C@@H](Cc2ccccc2)C(=O)N[C@@H](Cc2ccccc2)CC(=O)N1C | -5.16 |
| CC(C)C[C@@H]1C(=O)N(Cc2ccccc2)CC(=O)N2CCC[C@H]2C(=O)N[C@H](CC(C)C)C(=O)N[C@@H](Cc2ccccc2)C(=O)N2CCC[C@@H]2C(=O)N[C@@H](Cc2ccccc2)CC(=O)N1C | -5.58 |
| CCCN1CC(=O)N(C)[C@@H](CC(C)C)C(=O)N[C@@H](Cc2ccccc2)CC(=O)N2CCC[C@H]2C(=O)N[C@@H](CC(C)C)C(=O)N[C@@H](Cc2ccccc2)C(=O)N2CCC[C@H]2C1=O | -5.71 |
| CC(C)C[C@@H]1C(=O)N[C@H](CC(C)C)C(=O)N2CCC[C@H]2C(=O)N(C)[C@H](CC(C)C)C(=O)N[C@@H](Cc2ccccc2)C(=O)N2CCC[C@@H]2C(=O)N[C@H](C)C(=O)N1C | -5.24 |
| CC(C)C[C@@H]1NC(=O)C[C@H](Cc2ccccc2)NC(=O)[C@H](Cc2ccccc2)NC(=O)[C@H](CC(C)C)NC(=O)[C@H]2CCCN2C(=O)C[C@H](Cc2ccccc2)NC1=O | -5.26 |

The 2 lowest values of PAMPA among the entries above:

| compound | PAMPA (log10 cm/s) |
|---|---|
| CC(C)C[C@@H]1C(=O)N(C)[C@@H](CC(C)C)C(=O)N2CCC[C@H]2C(=O)N[C@H](CC(C)C)C(=O)N[C@@H](Cc2ccccc2)C(=O)N2CCC[C@@H]2C(=O)N(C)[C@H](C)C(=O)N1C | -6.49 |
| CC(C)C[C@@H]1NC(=O)[C@H]2CCCN2C(=O)[C@H](CC(C)C)NC(=O)[C@H](CC(C)C)N(C)C(=O)[C@H](C)NC(=O)[C@H](Cc2ccccc2)NC1=O | -6.46 |